This passage reports drug release rate results from US9149540B2, “Polymer conjugate of folic acid or folic acid derivative” (Nippon Kayaku Kabushiki Kaisha, priority 2008, dated 2015).

The conditions of the data set: PBS solution, 37° C., absence of hydrolase; FIG. 1.

As for “PEG-Asp40(α,γ-Tyramine-PEM)-Ac [PEM_G-40]”, the drug release rate entry was “the release rate is intermediate between the rate of the α-substituted form and the rate of the γ-substituted form”.
